{
  "source": "patent US10612051B2",
  "about": "“Method of producing bioproducts” (White Dog Labs, Inc., priority 2015, dated 2020)",
  "key": {"[1]": {"test": "Extraction of aqueous bioproduct solutions with 1-butene in a pressure vessel (distribution coefficient)", "assay_type": "physicochemical", "experimental": "(§1) 100 g (grams) aqueous solutions of various bioproducts were prepared. Bioproduct initial concentration was 2%. Each of these bioproduct aqueous solutions was extracted in a pressure vessel by mixing with 100 g 1-butene (the olefin). The amount of formed extract and formed raffinate and the concentration (conc.) of the bioproduct in each were determined. Theses concentrations were used to calculate the bioproduct distribution coefficient (DC). Table 2 compares the found distribution coefficients to those of extracting with dimethyl ether (DME)."}, "[2]": {"test": "Extraction with dimethyl ether (DME), distribution coefficient for comparison", "assay_type": "physicochemical", "conditions": "extracting with dimethyl ether", "experimental": "as §1"}},
  "data": [
    {"substance": "Butanol", "values": [
      {"measurement": "DC (bioproduct distribution coefficient)", "setting": "[1]; 1-butene / aqueous phase, Table 1", "result": 1.04},
      {"measurement": "Extract Bioproduct conc. (%)", "setting": "[1]; 100 g aqueous solution, 2% initial bioproduct, mixed with 100 g 1-butene, extract phase", "result": 1.02, "unit": "%"},
      {"measurement": "Raffinate Bioproduct conc. (%)", "setting": "[1]; 100 g aqueous solution, 2% initial bioproduct, mixed with 100 g 1-butene, raffinate phase", "result": 0.98, "unit": "%"},
      {"measurement": "Distribution coefficient DME", "setting": "[2]", "result": 2.92}
    ]}
  ]
}
